The text below walks through data of US8921373B2, “Compounds having TRPV1 antagonistic activity and uses thereof” (Shionogi & Co., Ltd., priority 2010, dated 2014).

Chains of the proteins cited; added tags and fusions are not shown.
UniProt Q8NER1, whole entry: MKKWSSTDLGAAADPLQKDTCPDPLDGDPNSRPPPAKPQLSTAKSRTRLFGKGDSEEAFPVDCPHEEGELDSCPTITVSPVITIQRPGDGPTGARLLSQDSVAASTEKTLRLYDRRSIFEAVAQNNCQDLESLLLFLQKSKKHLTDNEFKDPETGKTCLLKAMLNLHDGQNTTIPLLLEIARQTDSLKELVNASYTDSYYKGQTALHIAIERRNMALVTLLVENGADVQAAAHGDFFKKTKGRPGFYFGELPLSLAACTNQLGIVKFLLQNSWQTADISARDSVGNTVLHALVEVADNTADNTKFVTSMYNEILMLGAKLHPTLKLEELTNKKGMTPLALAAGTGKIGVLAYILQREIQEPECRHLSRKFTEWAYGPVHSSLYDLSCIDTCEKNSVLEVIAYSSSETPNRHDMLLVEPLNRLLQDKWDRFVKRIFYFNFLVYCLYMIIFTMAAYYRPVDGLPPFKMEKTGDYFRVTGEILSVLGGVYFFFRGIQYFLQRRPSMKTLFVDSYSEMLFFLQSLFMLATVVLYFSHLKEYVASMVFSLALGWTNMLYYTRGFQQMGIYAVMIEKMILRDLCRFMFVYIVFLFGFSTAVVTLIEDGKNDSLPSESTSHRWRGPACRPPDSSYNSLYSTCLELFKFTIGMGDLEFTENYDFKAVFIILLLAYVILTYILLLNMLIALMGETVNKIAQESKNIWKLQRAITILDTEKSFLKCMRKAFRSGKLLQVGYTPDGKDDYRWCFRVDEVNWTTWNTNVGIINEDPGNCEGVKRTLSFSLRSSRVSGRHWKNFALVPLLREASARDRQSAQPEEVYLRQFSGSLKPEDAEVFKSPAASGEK

The test has as its target human recombinant TRPV1 (Homo sapiens (Human), UniProt Q8NER1). As to the kind of experiment: TRPV1 pH-Based Assay (Protocol 2, Ca2+ response in TRPV1/CHO cells, Fura-2). It counts as cell-based. The settings on record: pH 5.0-5.1, comparative compounds without the substituted alkyl group, read-out: TRPV1 IC50 Potency (pH-Based Assay), Comparative compound IC50. Here is the method:
For Protocol 2, a Chinese Hamster Ovary cell line (CHO) that has been engineered to constitutively express human recombinant TRPV1 was used (TRPV1/CHO cells). The TRPV1/CHO cell line was generated as described below.
TRPV1/CHO cells were seeded in the 96-well clear-bottom black-wall plate (Nunc) at densities of 1-2×10^4 cells/well and grown in 100 μL of culture medium (alpha-MEM supplemented with 10% FBS, 20 mM HEPES, 1 mg/mL geneticin and 1% antibiotic-antimycotic mixed stock solution) for 1-2 days before the experiment.
(2) The 96-well plate was incubated at 37° C. for 45 min.
(3) The loading buffer was removed from each well. […] The wells were then refilled with 80 μL of measuring buffer. […]
(5) The Fura-2 fluorescent intensity was monitored at a wavelength of 340 nm and at 380 nm, respectively, at a rate of 0.5 Hz for a total of 240 seconds. […]
(6) Fluorescence intensity ratio refers to the fluorescence intensity at 340 nm over the fluorescence intensity at 380 nm at a particular time point. […]
(7) Maximal signal ratios from each well were calculated as output data using the FDSS-3000 analysis program. Data were analyzed using Excel (Microsoft) and XLfit (idbs) software.
Two different agonist solutions with different H2SO4 concentrations were used for the pH assay (FIG. 3A). […] The concentrations for the two agonist solutions were determined as described above in Section 2 of Protocol 2. […]

In the case of `O=C(Nc1ccc(C(F)(F)F)cc1)N1CC=C(c2ncccc2Cl)CC1` [reference compound], the IC50 worked out at 32 nM.

The IC50 is the midpoint of a concentration-inhibition curve.
